From BindingDB's records for doi:10.1016/j.ejmech.2013.04.007 (Astrazeneca, 2013)

Assay: Antagonist activity at P2Y12 receptor in human washed platelets assessed as inhibition of fibrinogen-induced aggregation

- IC50: 9.5 nM
Structure (SMILES): CCOC(=O)c1cc(C#N)c(N2CC(NC(=O)NS(=O)(=O)c3ccc(Cl)s3)C2)nc1C
